Laboratory results reported in US11447533B2, “Antimicrobial and anticancer peptides and conjugates and compositions, methods, articles and kits relating thereto” (George Mason Research Foundation, Inc., priority 2018, dated 2022).

Tests used:
[1] = system: E. coli ML35p outer membrane; experiment: Outer membrane disruption (β-lactamase leakage, nitrocefin); type: cell-based, Escherichia coli; conditions: DPBS; HCMAB = 100%
Procedure: Interactions with Bacterial Membranes. Interaction of the peptides with bacterial membranes in different phosphate buffers were evaluated using E. coli ML35p, constructed in our laboratory. At first, competent cells of E. coli ML35 were produced by conventional competent cell preparation method, then transformed with pBR322 plasmid. Transformed colonies were selected after growing on Luria-agar containing 50 μg/mL ampicillin. A single transformed colony was grown in presence of ampicillin first in Luria broth and then in MHBII and stored as 20% glycerol stock at −80° C. […]
Membrane Disruptions. The outer and the inner membrane disruptions by the peptides were evaluated by incubating bacterial suspension with peptides and then measuring the activity of enzymes leaked out of the cells. […]
The outer membrane disruption was tested by using the activity of beta-lactamase present in the periplasmic space of E. coli ML35p. Peptides when disrupt the outer membrane enough to cause beta-lactamase to come out, the degree of disruption can be measured by the virtue of the kinetics of the enzyme and using a chromogenic cephalosporin substrate called nitrocefin. β-lactamase mediated hydrolyzed product of nitrocefin has an absorbance αmax=486 nm. […]

ESKAPE pathogens = experiment: Antimicrobial efficacy against ESKAPE pathogens (all other than P. aeruginosa); type: cell-based; conditions: mammalian serum; susceptible and drug-resistant strains
Procedure: FIG. 8 is a graph showing antimicrobial efficacies of ATRA1-R3W2-HYD (blue), NA-CATH (dark orange) and PMB (green) against selected members of ESKAPE (Enterococcus faecium, Staphylococcus aureus, Klebsiella pneumoniae, Acinetobacter baumannii, Pseudomonas aeruginosa, and Enterobacter) pathogens. Both susceptible and drug-resistant strains were used. All the bacteria, except Pseudomonas aeruginosa, were tested under mammalian serum. P. aeruginosa results were obtained from testing in DPBS. The results are presented as mean of tests in triplicate with error-bars depicting the 95% confidence interval of the mean.
Antimicrobial Studies. The phosphate buffers used for antimicrobial assays were supplemented with non-nitrogenous energy source, 0.1% (w/v) glucose. […]
Antimicrobial assays in different phosphate buffers and serum were conducted by adapting, with necessary modifications a fast high-throughput method based on Virtual Colony Count technique and later modified by incorporating the use of resazurin. At first serial dilution of a microbial strain in respective buffer was poured in the wells of 96 well polypropylene microplate and was then added with same volume of 2× MHB II supplemented with 80 μg/mL resazurin and incubated at 35° C. in a Gemini EM Microplate Reader (Molecular Devices) overnight with intermittent shaking. […]

CC[C@H](C)[C@H](NC(=O)[C@@H](NC(=O)[C@H](CCCCN)NC(=O)[C@@H]1CCCN1C(=O)[C@H](CCCCN)NC(=O)[C@H](CCCCN)NC(=O)[C@H](Cc1ccccc1)NC(=O)[C@H](Cc1ccccc1)NC(=O)[C@H](CCCCN)NC(=O)[C@H](CCCCN)NC(=O)[C@H](C)NC(=O)[C@H](CCCNC(=N)N)NC(=O)[C@H](CCCCN)NC(=O)[C@H](CCCCN)NC(=O)[C@@H](NC(=O)[C@H](CO)NC(=O)[C@H](CC(N)=O)NC(=O)[C@H](CCCCN)NC(=O)[C@H](CC(C)C)NC(=O)[C@H](CCCCN)NC(=O)[C@H](CCCCN)NC(=O)[C@H](Cc1ccccc1)NC(=O)[C@H](Cc1ccccc1)NC(=O)[C@H](CCCCN)NC(=O)[C@H](CCCCN)NC(=O)[C@H](Cc1ccccc1)NC(=O)[C@H](CCCNC(=N)N)NC(=O)[C@@H](N)CCCCN)C(C)C)C(C)C)C(=O)NCC(=O)N[C@H](C(=O)N[C@H](C(=O)N[C@@H](Cc1ccccc1)C(=O)N1CCC[C@H]1C(=O)N[C@@H](Cc1ccccc1)C(=O)O)[C@@H](C)O)C(C)C [NA-CATH, reference compound]
outer membrane disruption (β-lactamase activity) relative to HCMAB [1]: slightly lower degrees of membrane-disruption | antimicrobial effectiveness, in words (ESKAPE pathogens): highly effective, though in lower degree than PMB
